Laboratory results: patent US12053459B2, “CDK2 inhibitors and methods of using the same” (Cedilla Therapeutics, Inc., priority 2021, dated 2024)

Tests used:
[1] = target: CDK2/Cyclin E1(14-475) (Homo sapiens, UniProt P24941); experiment: Caliper LabChip EZ Reader mobility shift assay, inhibition of CDK2/Cyclin E1 activity; conditions: read-out: Caliper Assay IC50, class symbols A-D
Method: Inhibition of CDK2/Cyclin E1 activity in the presence of compounds of the present disclosure was evaluated using a Caliper LabChip® EZ Reader mobility shift assay. In the assay, activated CDK2/Cyclin E1 catalyzes the phosphorylation of a fluorescently tagged peptide 5-FAM-QSPKKG-CONH2 (PerkinElmer, FL Peptide 18) which induces a difference in capillary electrophoresis mobility. The peptide substrate and product were measured, and the conversion ratio was used to determine the inhibition (as % activity and IC50 values) of CDK2/Cyclin E1. Reactions contained 50 mM HEPES pH 7.5, 10 mM MgCl2, 1 mM EDTA, 2 mM DTT, 0.01% Brij35, 0.5 mg/mL BSA, 0.1% DMSO, 2.5 nM CDK2/Cyclin E1(14-475), 100 μM ATP, and 1.5 μM fluorescent peptide substrate.
Dose titrations of inhibitors in 100% DMSO were combined with 3.25 nM CDK2/Cyclin E1(14-475) and 130 μM of ATP in reaction buffer. The mixtures were incubated for 30 minutes before the addition of fluorescent peptide substrate to initiate the kinase reaction. The final conditions were 2.5 nM CDK2/Cyclin E1(14-475), 100 μM ATP, and 1.5 μM fluorescent peptide. The reactions were stopped after 100 minutes with the addition of EDTA (6 mM final EDTA concentration). The stopped reactions were analyzed on a Caliper LabChip® EZ Reader II. […]

[2] = test system: Kuramochi cells; experiment: BrdU cell proliferation assay (colorimetric ELISA), Kuramochi cells; conditions: read-out: BrdU Cell Proliferation Assay IC50, class symbols A-D
Method: A BrdU assay was used as a measure of proliferation based on the DNA replication process of proliferating cells. BrdU, a pyrimidine analog, is added to the cell culture and incorporated into the DNA of proliferating cells. The presence of the BrdU analog was then measured through a colorimetric ELISA. After fixation and permeabilization of cells, peroxidase-conjugated antibody recognizing BrdU is added and allowed to incubate, followed by thorough washing to remove unbound antibody. In order to quantify the amount of bound antibody, peroxidase substrate is added and produces a color that can be measured at 450 nm. […]
On day 4, the plates were developed using the BrdU ELISA Cell Proliferation Assay according to manufacturer's instructions (Roche, 11647229001). […] Three washes with PBS were performed to remove any unbound antibody, followed by the addition of 100 μL of substrate solution to each well. […] was then added to halt the reaction, and plates were read out using an Envision spectrophotometer (Perkin Elmer) set to read 450 nm absorbance. Background absorbance values from empty wells were subtracted from all samples and then normalized to DMSO treated wells.

IC50 [1] | SMILES | IC50 [2]
> 10 µM | CNC(=O)[C@H](CCCc1ccccc1)NC(=O)C1CN(C(=O)Cc2c[nH]c3cc(Cl)ccc23)CC2CN(C(=O)c3cc[nH]n3)CC21 (stereo partly shown) | > 10 µM
0.5 to 5 µM | CNC(=O)[C@H](CCCc1ccccc1)NC(=O)C1CN(C(=O)C2(c3c[nH]c4ccccc34)CC2)CC2CN(C(=O)c3ccc(OC(C)C)c(OC)c3)CC21 (stereo partly shown) | > 10 µM
